According to patent publication US7279172B2, “Treatment of autoimmune conditions with copolymer 1 and related copolymers” (priority 1998, dated 2007):

How the values were obtained:
[1] = test system: DR1-restricted 3.19 and 19.3 T cell hybridomas; assay: Inhibition of IL-2 production by DR1-restricted CII-specific T cell hybridomas; settings: CII 261-273 40 μg/ml, L57.23 APC, IL-2 read by CTL-L proliferation
[2] = test system: experimental allergic encephalomyelitis (EAE); assay: EAE suppression by oral administration; settings: Lewis rats fed 5 mg/kg at 2-3 day intervals before EAE induction; for Incidence / Incidence (%): cumulative of 3–5 experiments

| Molecule | inhibition of DR1-restricted T cell activation by CII collagen peptide (in words) [1] | Mean Onset [2] | Incidence [2] | Incidence (%) [2] |
| --- | --- | --- | --- | --- |
| poly[L-Tyr^0.102, L-Ala^0.542, L-Lys^0.353] [SD-1691-TAL] | most potent inhibitor |  |  |  |
| Copolymer 1 [reference compound] | potent inhibitors | 12.6 days | 13/28 | 46% |
| poly[L-Tyr^0.162, L-Glu^0.259, L-Lys^0.579] [SD-1697-GTL] | potent inhibitors |  |  |  |
| poly[L-Tyr^0.136, L-Glu^0.21, L-Ala^0.648] [SD-1690-TGA] | less efficiently |  |  |  |
| GPBP: guinea pig basic protein (protein, UniProt P25188 1-167, looked up) Myelin basic protein: ASQKRPSQRHGSKYLATASTMDHARHGFLPRHRDTGILDSIGRFFGSDRAAPKRGSGKDSHHAARTTHYGSLPQKSQRSQDENPVVHFFKNIVTPRTPPPSQGKGRGLSLSRFSWGAEGQKPGFGYGGRADYKSKGFKGAHDAQGTLSKIFKLGGRDSRSGSPMARR |  | 11.4 days | 10/17 | 59% |
